In article PMC11678766, “Identification of Novel Inhibitors of Starch Excess 4 (SEX4)” (Life, 2024):

Molecular target: T1, SEX4 (Arabidopsis thaliana, UniProt Q9FEB5)
T1 construct: gift from Dr. Gentry's group, University of Kentucky College of Medicine
T1 sequence (Q9FEB5 90-379 limits assumed): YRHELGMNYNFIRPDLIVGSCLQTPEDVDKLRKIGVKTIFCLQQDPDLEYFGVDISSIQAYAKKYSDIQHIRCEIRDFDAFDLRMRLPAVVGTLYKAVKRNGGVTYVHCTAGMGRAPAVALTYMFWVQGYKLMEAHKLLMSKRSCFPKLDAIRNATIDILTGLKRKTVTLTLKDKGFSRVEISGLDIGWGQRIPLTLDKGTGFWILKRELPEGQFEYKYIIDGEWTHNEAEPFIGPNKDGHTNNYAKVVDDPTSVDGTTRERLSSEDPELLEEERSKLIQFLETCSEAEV
Test: Phosphatase assay against amylopectin, SEX4
Format: biochemical
Conditions: comparison of IC50 values for SEX4 and LSF2
Description: The Arabidopsis thaliana SEX4 lacking the first 89 amino acids (Δ89-SEX4) and LSF2 proteins were kindly provided by Dr. Gentry’s group at the University of Kentucky College of Medicine (Lexington, KY, USA). para-nitrophenyl phosphate disodium salt hexahydrate (pNPP), Malachite green oxalate salt, ammonium molybdate tetrahydrate, and amylopectin from potato starch were purchased from Sigma-Aldrich. Absorbance was measured on a Beckman Coulter (Brea, CA, USA) DU 700 Series UV/Vis Spectrophotometer.
The phosphatase activity of SEX4 or LSF2 toward amylopectin in the absence or presence of an inhibitor was measured in a reaction mixture with 2 μg SEX4 or LSF2 at 37 °C in 20 μL volume. […] The release of free inorganic phosphate was determined by measuring the absorbance at 620 nm and the K2HPO4 standard curve.
The steady-state kinetic parameters were determined by varying substrate concentrations (pNPP 0.5–50 mM; amylopectin 5–45 μg) with or without an inhibitor. […] Inhibition constants (Ki) and inhibition types were determined by varying substrate concentrations in the absence of an inhibitor and in the presence of an inhibitor at the IC50 concentration. […]
The IC50 values were calculated directly from regression curves using GraphPad PRISM software. […]

CCCCCC/C=C\CCCCCCCc1cccc(O)c1C(=O)O [Compound F05, Ginkgolic acid]
Selectivity between SEX4 and LSF2: selective for SEX4
